Results on 1 substance are retold here after US20240050524A1, “DELIVERY OF ABETA VARIANTS FOR AGGREGATION INHIBITION” (Baylor College of Medicine, priority 2020, published 2024).

The target of the test is wild-type Aβ42 peptide (human). The experiment in a line: cell-based or functional assay.

Take wild-type Aβ42 peptide: the ThT fluorescence, self-aggregation of the peptide alone (10 µM); time to plateau was less than 1 h.
